For two compounds, Tm results are on record in ChEMBL document CHEMBL2057137, “Lead optimization studies on FimH antagonists: discovery of potent and orally bioavailable ortho-substituted biphenyl mannosides” (J Med Chem, 2012).

The subject of the experiment is Escherichia coli. The experiment is described as follows: Binding affinity to […] Escherichia coli FimH-lectine domain assessed as melting temperature at 100 uM by differential scanning fluorometric assay. An outline of the steps: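 Untagged FimH lectin domain (residues 1–158 of UPEC J96 FimH), 5 µg in a 50 µl reaction of HBS (20mM HEPES pH 7.5, 150mM NaCl). Compound at 100µM final, diluted from DMSO stocks, with SYPRO Orange at 5X final. Controls were FimH alone plus 0.2% DMSO. Melt curve ran from 20–90°C in 0.5 °C steps of 15 s each, with fluorescence read on the HEX channel.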

As for `OC[C@H]1O[C@H](OCc2ccccc2)[C@@H](O)[C@@H](O)[C@@H]1O`, the Tm was 68.1 °C.
Regarding `COC(=O)c1ccc(-c2ccc(O[C@H]3O[C@H](CO)[C@@H](O)[C@H](O)[C@@H]3O)cc2)cc1`, the Tm stood at 68.7 °C.
